The target of this test is Potassium voltage-gated channel subfamily H member 2 (Homo sapiens, UniProt Q12809).

Sequences of proteins named here, by UniProt entry; tags and fusion partners are left off. A change or cut given only in a name is not applied to a line headed by its entry.
UniProt Q12809: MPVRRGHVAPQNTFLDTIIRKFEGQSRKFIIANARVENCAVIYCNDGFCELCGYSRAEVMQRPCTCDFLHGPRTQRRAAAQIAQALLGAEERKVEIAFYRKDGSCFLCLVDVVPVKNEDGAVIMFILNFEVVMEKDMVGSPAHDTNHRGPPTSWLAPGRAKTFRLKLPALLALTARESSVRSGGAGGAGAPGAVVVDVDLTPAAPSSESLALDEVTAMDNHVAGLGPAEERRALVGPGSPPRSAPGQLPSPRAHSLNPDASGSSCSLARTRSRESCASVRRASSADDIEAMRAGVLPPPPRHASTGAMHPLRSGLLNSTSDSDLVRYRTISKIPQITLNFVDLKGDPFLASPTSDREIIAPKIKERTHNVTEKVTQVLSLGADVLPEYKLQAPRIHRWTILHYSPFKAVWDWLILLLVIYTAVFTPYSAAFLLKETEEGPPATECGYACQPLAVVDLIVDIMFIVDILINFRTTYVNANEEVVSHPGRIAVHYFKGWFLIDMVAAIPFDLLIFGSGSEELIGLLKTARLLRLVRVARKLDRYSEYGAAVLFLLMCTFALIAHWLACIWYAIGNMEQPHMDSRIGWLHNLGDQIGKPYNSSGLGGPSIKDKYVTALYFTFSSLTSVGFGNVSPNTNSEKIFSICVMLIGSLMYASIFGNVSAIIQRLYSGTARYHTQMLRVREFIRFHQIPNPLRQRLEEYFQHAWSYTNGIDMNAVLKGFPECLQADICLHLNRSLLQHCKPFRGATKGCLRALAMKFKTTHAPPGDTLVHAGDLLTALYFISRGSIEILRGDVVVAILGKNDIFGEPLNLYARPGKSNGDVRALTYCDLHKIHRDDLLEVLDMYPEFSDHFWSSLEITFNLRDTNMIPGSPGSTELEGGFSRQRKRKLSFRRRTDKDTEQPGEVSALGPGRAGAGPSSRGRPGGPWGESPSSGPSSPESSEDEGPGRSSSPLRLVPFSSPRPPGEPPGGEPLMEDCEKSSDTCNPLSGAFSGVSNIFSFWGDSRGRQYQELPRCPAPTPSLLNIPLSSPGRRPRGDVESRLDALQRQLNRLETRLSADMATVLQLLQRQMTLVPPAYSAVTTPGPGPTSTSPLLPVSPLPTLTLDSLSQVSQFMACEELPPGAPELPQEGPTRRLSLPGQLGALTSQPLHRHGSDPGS

The term Ki denotes the equilibrium dissociation constant of an inhibitor or competing ligand from its target. Turning to `O=C1Cc2cc(CCN3CCN(c4nsc5ccccc45)CC3)c(Cl)cc2N1` [5-[2-(4-Benzo[d]isothiazol-3-yl-piperazin-1-yl)-ethyl]-6-chloro-1,3-dihydro-indol-2-one], the Ki is 169 nM.

(Values after BindingDB's records for doi:10.1016/s0014-2999(02)02074-5 (Aventis Pharmaceuticals, 2002).)
